Screening data deposited in PubChem BioAssay by ICCB-Longwood Screening Facility, Harvard Medical School.
HCMV UL50-53 inh = disrupts HCMV UL50-UL53 complex binding. 0.15% of 190,000 active. AID 1918969. HTRF UL50-UL53 interaction, normalized percent inhibition. inhibition, % (test concentration not listed); in the data active = inhibition above about 27%, passing the limit was not always enough
GIV Gai3 FP = blocks GIV peptide binding to rat Galpha-i3. P08753. Galpha-i3/FITC-GIV peptide fluorescence polarization, 90 min; stronger effect = lower value; scaled: aluminum fluoride 0%, vehicle 100%. percent of control (FP), % (test concentration not listed). 0.42% of 210,000 active. AID 1224905;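 active = replicate mean at 85% of control or lower, very high polarization wells dropped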;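 note: wells of about 15 µL received 100 nL stock; the first replicate is given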
GIV Gai FP conf = GIV-Galpha-i3 inhibition, FP confirmation; fluorescence polarization, mP at 100 µM; FITC-GIV peptide binding to Galphai3, fluorescence polarization; active compounds read low; 38% of 580 active; shares compounds with GIV Gai3 FP; AID 1259350;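 active = inhibition score of 15 or more, meaning 100 minus mean polarization as percent of control over three replicates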;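 also: lower mP means peptide displaced from Galphai3 so more inhibition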
GIV-Gai AS conf = confirmation of inhibitors of GIV binding to human Galpha-i3 | AlphaScreen counts at 100 µM | AlphaScreen Galphai3-GIV binding, purified proteins, 90 min; active compounds read low | shares compounds with GIV Gai3 FP | 39% of 580 active;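 active = inhibition score at or above a set limit, where the score is 100 minus the three-replicate mean percent of control signal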
Active calls of the source: *; i = inactive; nt = not tested or not shown. Hits are enriched below; roughly 0.43% of the tested compounds scored in any of these assays.

1. CC(C(=O)O)N1C(=O)/C(=C/c2ccco2)SC1=S (stereo unspecified)
2. CC(OC(=O)CSc1nnc(-c2ccccc2)n1-c1ccccc1)C(=O)Nc1ccccc1C#N (stereo unspecified)
3. COc1ccc(C2C3=C(CC(c4ccc(C(F)(F)F)cc4)CC3=O)Nc3ccccc3N2C(=O)CCC(=O)O)cc1 (stereo unspecified)
4. CC1CCN(Cn2nc(-c3ccc(F)cc3)oc2=O)CC1
5. Cc1cccc(/C=C2/Oc3ccccc3N(CC(=O)N3CCC4(CC3)OCCO4)C2=O)c1
6. CN(Cc1ccccc1)c1nnc(NC(=O)NCc2ccccc2)s1

Screen / compound no.,1,2,3,4,5,6
HCMV UL50-53 inh,-66,1,nt,-59,nt,nt
GIV Gai FP conf,55*,nt,nt,nt,nt,nt
GIV-Gai AS conf,3227*,nt,nt,nt,nt,nt
GIV Gai3 FP,75*,nt,103,nt,106,102

7. COc1ccc(-c2nc(N3CCC(C)CC3)nc3nn4c(C)cc(C)nc4c23)cc1
8. Cc1cc(C)n2nc3nc(N4CCCC4)nc(-c4ccccc4)c3c2n1
9. OC(COCc1ccccc1)C[N+]1(Cc2ccccc2)CCOCC1 (stereo unspecified)
10. CSc1scc2c1C(=O)CC(C)(C)C2
11. CSc1scc2c1C(=O)/C(=C/N(C)C)CC2
12. O=C1NC(=O)/C(=C\c2cn(Cc3ccccc3F)c3ccccc23)N1

Screen / compound no.,7,8,9,10,11,12
HCMV UL50-53 inh,-18,0,-23,-8,-84,nt
GIV Gai FP conf,66,nt,nt,nt,29*,nt
GIV-Gai AS conf,41938,nt,nt,nt,1880*,nt
GIV Gai3 FP,88,105,nt,103,14*,107

4 entries from above, tab-delimited:
cpd	smiles	HCMV UL50-53 inh	GIV Gai FP conf	GIV-Gai AS conf	GIV Gai3 FP
9	OC(COCc1ccccc1)C[N+]1(Cc2ccccc2)CCOCC1 (stereo unspecified)	-23	nt	nt	nt
10	CSc1scc2c1C(=O)CC(C)(C)C2	-8	nt	nt	103
11	CSc1scc2c1C(=O)/C(=C/N(C)C)CC2	-84	29*	1880*	14*
12	O=C1NC(=O)/C(=C\c2cn(Cc3ccccc3F)c3ccccc23)N1	nt	nt	nt	107

Continued.
13. N#Cc1ccccc1Cn1cc(C=C2C(=O)NC(=O)NC2=O)c2ccccc21
14. Cc1ccc(C(=O)c2[nH]c(=O)c3ccccc3c2O)c(C)c1
15. CCOC(=O)c1[nH]c(=O)c2ccccc2c1O
16. CCCc1nc(-c2cc3cccc(C)c3nc2N2CCCC2)no1
17. Cc1cc2nc3c(=O)n(C)c(=O)n(C)c3nc2cc1N
18. Cn1c(=O)c2nc3ccc(NC(=O)C(F)(F)F)cc3nc2n(C)c1=O

Screen / compound no.,13,14,15,16,17,18
HCMV UL50-53 inh,-20,60*,-12,-6,nt,-74
GIV Gai FP conf,80,61,nt,nt,nt,67
GIV-Gai AS conf,40454,47319,nt,nt,nt,29111
GIV Gai3 FP,63*,81*,110,102,95,79*

19. C=CCOC(=O)C1=C(C)NC2=C(C(=O)CC(c3ccc(OC)cc3)C2)C1c1ccc(OCC)c(OC)c1 (stereo unspecified)
20. COc1ccc2c(CC(=O)Nc3ccccc3)coc2c1
21. COc1ccc2c(CC(=O)O)coc2c1
22. COCC(C)NC(=O)Cn1nc(C)c(NC(=O)c2cc(-c3ccc(OC)c(OC)c3)no2)c1C (stereo unspecified)
23. CCCn1c(=O)c2nscc2n(CC(=O)NC(C)C)c1=O
24. O=C1C2CC=C(Cl)CC2C(=O)N1CCN1CCN(CCN2C(=O)C3CC=C(Cl)CC3C2=O)CC1 (stereo unspecified)

Screen / compound no.,19,20,21,22,23,24
HCMV UL50-53 inh,-13,-31,-13,-12,nt,-22
GIV Gai FP conf,nt,nt,68,nt,nt,nt
GIV-Gai AS conf,nt,nt,38743,nt,nt,nt
GIV Gai3 FP,100,nt,90,97,103,105

25. CCCNc1ncnc2oc(C)c(C(=O)OCC)c12
26. COc1cc2c(cc1OC)CN(CCC(=O)O)CC2
27. COc1cc2c(cc1OC)CN(CC(N)=O)CC2
28. Cc1nc(N2CCCC2)nc2oc(-c3ccccc3)nc12
29. Cc1nc(N2CCN(c3ccccn3)CC2)nc2oc(-c3ccccc3)nc12
30. CCOc1ccc(/C=C2/C(=O)NC(=O)N(C3CCCCC3)C2=O)cc1

Screen / compound no.,25,26,27,28,29,30
HCMV UL50-53 inh,6,nt,-7,-31,-16,-1
GIV Gai FP conf,nt,67,nt,nt,98,nt
GIV-Gai AS conf,nt,39813,nt,nt,26416,nt
GIV Gai3 FP,98,92,nt,115,93,102

31. Cc1cc(C)nc(NC(c2ccccc2)c2cc(C)sc2NC(=O)c2ccccc2)n1 (stereo unspecified)
32. Cc1cc(C)nc(NC(c2cccc(F)c2)c2cc(C)sc2NC(=O)c2ccccc2)n1 (stereo unspecified)
33. CCC(=O)N(c1nnc(SCCCn2c(=O)c3c(ncn3C)n(C)c2=O)s1)C1CC1
34. O=C1CCCC(O)=C1C1=NC2(CCCCCC2)Cc2ccccc21
35. O=C1CCCC(O)=C1C1(O)C(=O)c2ccccc2C1=O
36. CC(C)(C)C(=O)C1C2C3COC(O3)C(=O)C2C2C=Cc3ccccc3N21 (stereo unspecified)

Screen / compound no.,31,32,33,34,35,36
HCMV UL50-53 inh,-8,0,0,nt,74*,i
GIV Gai FP conf,nt,65,nt,nt,56*,nt
GIV-Gai AS conf,nt,35362,nt,nt,55998,nt
GIV Gai3 FP,109,69*,nt,103,62*,100

37. CC(=O)[C@@H]1[C@H]2C3COC(O3)C(=O)[C@@H]2[C@H]2C=Cc3ccccc3N21 (stereo partly specified)
38. O=C(CSc1nc(-c2ccccc2)cs1)N1CCN(S(=O)(=O)c2ccccc2)CC1
39. O=C(CSc1nc(-c2ccccc2)cs1)N1CCOCC1
40. O=C(O)/C=C/c1ccc(/C=C/C(=O)O)cc1
41. O=C(/C=C/c1ccccc1)/C=C/c1ccccc1
42. Cc1ccc(NC(=O)N2CCN(c3cc(=O)n4nc(-c5ccccc5C)sc4n3)CC2)c(Cl)c1

Screen / compound no.,37,38,39,40,41,42
HCMV UL50-53 inh,nt,-24,-2,-33,nt,5
GIV Gai FP conf,51*,nt,73,nt,47*,81
GIV-Gai AS conf,7239*,nt,49138,nt,17701*,28227
GIV Gai3 FP,80*,nt,90,108,80*,92

43. Cc1ccccc1-c1nn2c(=O)cc(N3CCN(C(=O)Nc4cccc(Cl)c4C)CC3)nc2s1
44. O=C(Cc1ccccc1)NCCSc1ccccc1
45. NC1=NC2(O)c3ccccc3C(=O)C2(O)NN1 (stereo unspecified)
46. O=C1NC2(O)C(=O)c3ccccc3C2(O)N1 (stereo unspecified)
47. CC1=NN(c2cccc(C(F)(F)F)c2)C(=O)C1
48. CC1=NN(c2cc(S(=O)(=O)O)c3cccc(S(=O)(=O)O)c3c2)C(=O)C1

Screen / compound no.,43,44,45,46,47,48
HCMV UL50-53 inh,28,-8,nt,nt,-12,nt
GIV Gai FP conf,nt,nt,54*,nt,nt,60
GIV-Gai AS conf,nt,nt,44135,nt,nt,2889*
GIV Gai3 FP,100,98,76*,113,nt,59*

49. S=c1[nH]nc(C2COc3ccccc3O2)o1 (stereo unspecified)
50. S=c1nc(C2COc3ccccc3O2)[nH][nH]1 (stereo unspecified)
51. COc1cc(Cl)c(C)cc1NC(=O)c1sc2ncn(CC(=O)Nc3ccc(C)c(Cl)c3)c(=O)c2c1C
52. CCOC(=O)c1c(-c2ccccc2)cn2ccccc12
53. CCOC(=O)c1c(-c2ccccc2)c[nH]c1N
54. CCCn1cc(S(=O)(=O)c2ccc(OC)cc2)c(=O)c2cc(F)c(N3CCN(C)CC3)cc21

Screen / compound no.,49,50,51,52,53,54
HCMV UL50-53 inh,-1,-2,-24,-18,-10,-12
GIV Gai FP conf,68,nt,nt,nt,39*,71
GIV-Gai AS conf,3039*,nt,nt,nt,19838*,35545
GIV Gai3 FP,83*,nt,107,102,60*,68*

55. CCCn1cc(S(=O)(=O)c2ccc(CC)cc2)c(=O)c2cc(F)c(N3CCN(C)CC3)cc21
56. Cc1cccc(NC(=O)Nc2noc3c2COc2ccccc2-3)n1
57. Cc1ccc(CSc2nccc3c2ccn3CC(=O)NCCN2CCCC2)cc1
58. O=C1CN(C(=O)c2ccc3c(c2)S(=O)(=O)c2ccccc2C3=O)c2ccccc2N1
59. CC1=NN(c2ccccc2)C(=O)/C1=C1/C(=O)N(c2ccccc2)N=C1C
60. CC1=NN(c2ccccc2)C(=O)C1=C1SCCS1

Screen / compound no.,55,56,57,58,59,60
HCMV UL50-53 inh,nt,-23,nt,-39,106*,-109
GIV Gai FP conf,nt,nt,nt,nt,53*,nt
GIV-Gai AS conf,nt,nt,nt,nt,17646*,nt
GIV Gai3 FP,110,102,104,nt,61*,103

61. O=C(O)c1ccc(-c2cnc3ccccc3n2)cc1
62. O=C(/C=C/c1ccccc1)NCc1nc2ccccc2[nH]1
63. Cc1c(C=Nc2ccc(SC#N)c(Cl)c2)c(O)[nH]c(=O)c1C#N
64. Cc1c(C=Nc2ccc(Cl)cc2)c(O)n(C)c(=O)c1C#N
65. Cc1cc(NC(=O)COC(=O)C2CCCCC2)no1

Screen / compound no.,61,62,63,64,65
HCMV UL50-53 inh,-79,-37,-16,-35,-33
GIV Gai FP conf,nt,nt,74,nt,nt
GIV-Gai AS conf,nt,nt,40787,nt,nt
GIV Gai3 FP,nt,nt,49*,108,nt
